Reference: US8586591B2, “Aminopyrazine derivative and medicine” (Nippon Shinyaku Co., Ltd., priority 2009, dated 2013)
pIC50: −log10 of the molar value.

Amino acid sequences for entries named in this document (tags omitted).
UniProt P52333, whole entry: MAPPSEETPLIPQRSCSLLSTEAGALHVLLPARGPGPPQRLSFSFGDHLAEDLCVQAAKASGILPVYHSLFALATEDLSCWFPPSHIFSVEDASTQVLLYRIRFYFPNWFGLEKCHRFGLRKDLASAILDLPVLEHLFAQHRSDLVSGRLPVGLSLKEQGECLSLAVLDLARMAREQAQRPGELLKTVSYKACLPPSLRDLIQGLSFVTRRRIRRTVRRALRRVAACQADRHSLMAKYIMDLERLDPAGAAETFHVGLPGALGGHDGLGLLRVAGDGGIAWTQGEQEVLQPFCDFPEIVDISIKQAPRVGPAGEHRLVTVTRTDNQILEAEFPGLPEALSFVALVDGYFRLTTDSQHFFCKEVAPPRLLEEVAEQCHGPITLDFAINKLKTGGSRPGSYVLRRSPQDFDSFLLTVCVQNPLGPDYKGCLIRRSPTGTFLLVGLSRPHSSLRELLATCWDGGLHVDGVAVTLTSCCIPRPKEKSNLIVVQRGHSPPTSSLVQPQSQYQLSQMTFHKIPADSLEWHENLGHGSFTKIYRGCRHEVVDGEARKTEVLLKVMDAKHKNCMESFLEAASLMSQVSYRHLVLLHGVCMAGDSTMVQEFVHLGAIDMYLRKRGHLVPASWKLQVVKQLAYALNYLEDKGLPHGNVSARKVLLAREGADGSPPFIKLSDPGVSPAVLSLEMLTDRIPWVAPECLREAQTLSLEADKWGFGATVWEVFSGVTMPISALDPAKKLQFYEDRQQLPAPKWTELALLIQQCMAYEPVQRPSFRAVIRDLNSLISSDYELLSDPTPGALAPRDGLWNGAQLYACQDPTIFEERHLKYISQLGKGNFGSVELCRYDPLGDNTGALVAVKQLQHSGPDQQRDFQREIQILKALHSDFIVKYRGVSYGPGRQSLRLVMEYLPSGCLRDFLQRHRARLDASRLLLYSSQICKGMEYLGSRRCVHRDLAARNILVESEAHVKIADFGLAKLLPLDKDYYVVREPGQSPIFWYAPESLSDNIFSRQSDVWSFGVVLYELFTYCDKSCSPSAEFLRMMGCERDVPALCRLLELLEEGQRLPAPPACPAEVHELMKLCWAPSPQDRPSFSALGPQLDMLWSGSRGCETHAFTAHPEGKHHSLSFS
UniProt O60674, whole entry: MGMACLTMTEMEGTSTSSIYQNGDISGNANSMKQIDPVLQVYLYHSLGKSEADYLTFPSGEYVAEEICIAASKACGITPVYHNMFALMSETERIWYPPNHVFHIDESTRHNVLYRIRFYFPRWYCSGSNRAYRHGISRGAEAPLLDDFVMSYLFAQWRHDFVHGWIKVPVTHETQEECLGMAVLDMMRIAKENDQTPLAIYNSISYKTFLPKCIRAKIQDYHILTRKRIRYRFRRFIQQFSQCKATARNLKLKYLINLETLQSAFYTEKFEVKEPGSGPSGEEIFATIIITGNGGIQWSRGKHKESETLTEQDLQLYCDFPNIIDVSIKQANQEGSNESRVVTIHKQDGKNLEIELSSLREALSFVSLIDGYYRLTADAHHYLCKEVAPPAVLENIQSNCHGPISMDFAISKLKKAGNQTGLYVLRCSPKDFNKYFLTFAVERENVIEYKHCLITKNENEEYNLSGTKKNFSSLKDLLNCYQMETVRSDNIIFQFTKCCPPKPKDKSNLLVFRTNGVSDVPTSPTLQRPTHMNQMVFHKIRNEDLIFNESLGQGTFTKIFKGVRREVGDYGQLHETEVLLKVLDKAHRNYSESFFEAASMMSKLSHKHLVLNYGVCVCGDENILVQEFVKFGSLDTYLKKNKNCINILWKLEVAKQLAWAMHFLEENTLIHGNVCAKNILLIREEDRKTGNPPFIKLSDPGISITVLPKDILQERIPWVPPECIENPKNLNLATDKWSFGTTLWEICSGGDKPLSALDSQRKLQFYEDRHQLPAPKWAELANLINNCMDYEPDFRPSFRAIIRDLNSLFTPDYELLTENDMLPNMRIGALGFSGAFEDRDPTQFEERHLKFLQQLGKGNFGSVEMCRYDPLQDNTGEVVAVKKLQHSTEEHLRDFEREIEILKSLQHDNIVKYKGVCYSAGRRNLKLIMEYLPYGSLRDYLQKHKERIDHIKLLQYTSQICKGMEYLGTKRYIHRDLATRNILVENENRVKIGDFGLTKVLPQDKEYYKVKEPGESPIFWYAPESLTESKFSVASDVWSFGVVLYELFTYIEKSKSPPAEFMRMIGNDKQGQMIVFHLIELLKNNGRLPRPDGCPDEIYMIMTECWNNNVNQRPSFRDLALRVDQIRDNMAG

Experiments:
[1] = molecular target: JAK3 tyrosine kinase (Homo sapiens, UniProt P52333); experiment: Test 1: inhibitory activity to JAK3 tyrosine kinase (ELISA); type: biochemical; settings: read-out: inhibitory activity to JAK3 tyrosine kinase (IC50), 25 μM ATP in substrate solution, 30° C. for 1 hour, n=2
[2] = molecular target: JAK2 tyrosine kinase (Homo sapiens, UniProt O60674); experiment: Test 1: inhibitory activity to JAK2 tyrosine kinase (ELISA); settings: read-out: inhibitory activity to JAK2 tyrosine kinase (IC50), 25 μM ATP in substrate solution, 30° C. for 1 hour, n=2

pIC50 [1]	pIC50 [2]	Compound
6.21	7.43	C[C@H](Nc1nc(Nc2cnccn2)cc(-c2cnccc2C(N)=O)n1)c1ccc(F)cc1
7.29	8.51	Cc1cnc(Nc2cc(Nc3cnccn3)nc(N[C@@H](C)c3ccc(F)cc3)n2)s1
5.89	7.72	C[C@H](Nc1nc(Nc2cnccn2)cc(-c2cnccc2C#N)n1)c1ccc(F)cc1
